Test results reported in PubChem BioAssay AID1259251 (The Scripps Research Institute Molecular Screening Center, 2017).
The entries are a selection whose mix differs from that of the whole data set. Active and inactive are the calls of the source. Cut-off read from the data, not from the text of the source: active = inhibition above about 43%; inactive = the rest.

Chains of the proteins cited; added tags and fusions are not shown.
UniProt O75385, whole entry: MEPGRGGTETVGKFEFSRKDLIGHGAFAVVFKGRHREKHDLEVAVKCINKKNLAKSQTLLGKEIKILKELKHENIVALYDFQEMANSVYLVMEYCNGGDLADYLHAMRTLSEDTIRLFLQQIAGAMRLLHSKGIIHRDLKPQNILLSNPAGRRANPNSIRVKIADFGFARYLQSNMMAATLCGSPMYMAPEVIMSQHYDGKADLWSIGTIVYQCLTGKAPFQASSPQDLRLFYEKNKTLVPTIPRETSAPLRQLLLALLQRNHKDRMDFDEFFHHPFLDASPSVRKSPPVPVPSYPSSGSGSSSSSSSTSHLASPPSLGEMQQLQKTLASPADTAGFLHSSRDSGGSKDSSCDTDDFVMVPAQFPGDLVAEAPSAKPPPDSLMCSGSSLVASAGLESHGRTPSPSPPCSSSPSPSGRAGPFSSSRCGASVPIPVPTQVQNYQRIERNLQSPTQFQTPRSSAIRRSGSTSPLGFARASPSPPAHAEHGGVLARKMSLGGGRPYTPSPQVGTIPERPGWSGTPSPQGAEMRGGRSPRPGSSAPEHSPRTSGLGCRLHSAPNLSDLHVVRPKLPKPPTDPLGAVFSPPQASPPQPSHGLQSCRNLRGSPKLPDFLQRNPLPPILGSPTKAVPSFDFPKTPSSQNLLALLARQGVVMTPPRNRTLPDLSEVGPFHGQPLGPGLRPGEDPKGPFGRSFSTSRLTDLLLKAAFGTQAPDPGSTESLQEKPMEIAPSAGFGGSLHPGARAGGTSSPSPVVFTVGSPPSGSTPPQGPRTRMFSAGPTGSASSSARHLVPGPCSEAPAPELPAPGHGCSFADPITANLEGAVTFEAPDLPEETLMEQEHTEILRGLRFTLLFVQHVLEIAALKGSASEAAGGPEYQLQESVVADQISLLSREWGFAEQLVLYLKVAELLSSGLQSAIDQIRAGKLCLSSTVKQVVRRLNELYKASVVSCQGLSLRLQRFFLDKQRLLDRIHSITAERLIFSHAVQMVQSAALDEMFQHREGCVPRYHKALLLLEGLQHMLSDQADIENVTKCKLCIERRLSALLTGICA

What follows are compounds tested against Serine/threonine-protein kinase ULK1 (Homo sapiens) (UniProt O75385) (assay: inhibition of human autophagy kinase ULK1 – biochemical, AlphaScreen, primary screen (AID 1259251;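 note: 0% = median of compound wells and 100% = no enzyme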)). Details: AlphaScreen Atg13 phosphorylation by ULK1, luminescence; at 5.96 µM; hits give high values.
In the case of `CCC(=O)N(c1ccccc1)C1(COC)CCN(CCc2cccs2)CC1`, the inhibition was inactive: 8.99%. In the case of `CCC(=O)N(c1ccccc1)C1(COC)CCN(CCn2nnn(CC)c2=O)CC1`, the inhibition was inactive: 4.69%. With `CN(CCCl)CCCl` the inhibition was inactive: -4.39%.
